Experimental data taken from ChEMBL document CHEMBL5252533, “Dual Kinase-Bromodomain Inhibitors in Anticancer Drug Discovery: A Structural and Pharmacological Perspective” (J Med Chem, 2016).

Target: Bromodomain testis-specific protein (Homo sapiens, UniProt Q58F21)
Test: biochemical
Type: cell-based

- IC50: 2500 nM
SMILES: Oc1ccc(-c2nc(-c3ccncc3)c(-c3ccc(F)cc3)[nH]2)cc1 [SB-202190]
